Test results as given in patent US20260274894A1, “CYCLIC POLYPEPTIDE COMPOUND AND USE THEREOF” (BIVISION PHARMACEUTICALS, INC., priority 2023, published 2026).
Read-outs that look alike come from different tables or passages of the source.

What was measured:
[1] = Biodistribution of ^177Lu-labeled compound in tumor-bearing mice; type: in vivo; settings: Balb/c Nude, mouse, iv, 3.7 MBq/mouse, total radioactivity
Procedure: Tissue distribution in FAP-positive tumor-bearing mice: […] […] The samples were measured on the day of collection.

[2] = Animal body weight after injection of ^177Lu-labeled compound
Procedure: 6- to 8-week-old (Balb/c Nude) mice were subcutaneously inoculated on the right scapula with 2×10^6 cells of HT1080 2 # (50% o Matrigel, Corning). When the tumors grew to the size as required by the assay, the animals were randomly assigned to 13 experimental groups based on tumor volume, with 5 animals per group. The body weight and tumor size were measured. On the day of grouping, administration was initiated for the control group (normal saline) and groups 1-12. General health and appearance were observed daily after the experiment began. Body weight and tumor size were measured prior to each sample collection time point. Any abnormal observations found during the entire study period were required to be recorded in the raw data.

[3] = in vivo, Distribution in tumor-bearing mice, Blood
[4] = in vivo, Distribution in tumor-bearing mice, Kidney
[5] = in vivo, Distribution in tumor-bearing mice, Liver
[6] = in vivo, Distribution in tumor-bearing mice, Muscle
[7] = in vivo, Distribution in tumor-bearing mice, Tumor

| Structure (SMILES) | tissue uptake at 24 h [1, 3] [%ID/g] | tissue uptake at 24 h [1, 4] [%ID/g] | tissue uptake at 24 h [1, 5] [%ID/g] | tissue uptake at 24 h [1, 6] [%ID/g] | tissue uptake at 24 h [1, 7] [%ID/g] | tissue uptake at 24 h ([1]; blood, 24 h after tail vein injection, read-out: Distribution in tumor-bearing mice, Blood) [%ID/g] | tissue uptake at 24 h ([1]; kidney, 24 h after tail vein injection, read-out: Distribution in tumor-bearing mice, Kidney) [%ID/g] | tissue uptake at 24 h ([1]; liver, 24 h after tail vein injection, read-out: Distribution in tumor-bearing mice, Liver) [%ID/g] | tissue uptake at 24 h ([1]; muscle, 24 h after tail vein injection, read-out: Distribution in tumor-bearing mice, Muscle) [%ID/g] | tissue uptake at 24 h ([1]; tumor, 24 h after tail vein injection, read-out: Distribution in tumor-bearing mice, Tumor) [%ID/g] | Animal body weight ([2]; Day 0) [g] | Animal body weight ([2]; Day 2) [g] | Animal body weight ([2]; Day 6) [g] | Animal body weight ([2]; Day 9) [g] | Animal body weight ([2]; Day 13) [g] | Animal body weight ([2]; Day 16) [g] |
| --- | --- | --- | --- | --- | --- | --- | --- | --- | --- | --- | --- | --- | --- | --- | --- | --- |
| CCCCNC(=O)N[C@H]1CSCc2cccc(c2)CSC[C@@H](C(=O)N[C@H](CC(=O)O)CC(=O)NCCNC(=O)CN2CCN(C(=O)CN3CCN(CC(=O)O)CCN(CC(=O)O)CCN(CC(=O)O)CC3)CC2)NC(=O)[C@H](CC2CCCCC2)NC(=O)[C@H](CCC(N)=O)NC(=O)[C@H]([C@@H](C)O)NC(=O)[C@@H]2CCCN2C(=O)C2CN(C2)C1=O (single isomer, unassigned) [^177Lu-JHDC42, metal not drawn] | 0.96 ± 0.113 | 3.62 ± 0.385 | 3.79 ± 0.198 | 1.75 ± 0.0919 | 18.4 ± 2.72 | – | – | – | – | – | – | – | – | – | – | – |
| CCCCNC(=O)N[C@H]1CSCc2cncc(c2)CSC[C@@H](C(=O)N[C@@H](CCC(=O)NCCN2CCN(C(=O)CN3CCN(CC(=O)O)CCN(CC(=O)O)CCN(CC(=O)O)CC3)CC2)C(=O)O)NC(=O)[C@H](CC2CCCCC2)NC(=O)[C@H](CCC(N)=O)NC(=O)[C@H]([C@@H](C)O)NC(=O)[C@@H]2CCCN2C(=O)C2CN(C2)C1=O (single isomer, unassigned) [^177Lu-JHDC46, metal not drawn] | 0.05 | 3.77 ± 0.173 | 3.23 ± 0.371 | 1.72 ± 0.152 | 23.2 ± 4.74 | – | – | – | – | – | – | – | – | – | – | – |
| CCCCNC(=O)N[C@H]1CSCc2cccc(c2)CSCC(C(=O)N[C@@H](CCNC(=O)CNC(=O)CN2CCN(CC(=O)O)CCN(CC(=O)O)CCN(CC(=O)O)CC2)C(=O)O)NC(=O)[C@H](CC2CCCCC2)NC(=O)[C@H](CCC(N)=O)NC(=O)[C@H]([C@@H](C)O)NC(=O)[C@@H]2CCCN2C(=O)C2CN(C2)C1=O (single isomer, unassigned) [^177Lu-JHDC56, metal not drawn] | 0.075 ± 0.0035 | 3.08 ± 0.237 | 0.845 ± 0.0672 | 0.345 ± 0.0035 | 16.8 ± 3.08 | – | – | – | – | – | – | – | – | – | – | – |
| CCCCCC(=O)N[C@H]1CSCc2cc(CSCCNC(=O)CN3CCN(CC(=O)O)CCN(CC(=O)O)CCN(CC(=O)O)CC3)cc(c2)CSC[C@@H](C(=O)O)NC(=O)[C@H](Cc2ccccc2)NC(=O)[C@H](CCC(N)=O)NC(=O)[C@H]([C@@H](C)O)NC(=O)[C@@H]2CCCN2C(=O)[C@@H]2CCCN2C1=O [^177Lu-FAP-2286, metal not drawn, reference compound] | – | – | – | – | – | 0.015 ± 0.0035 | 3.21 ± 0.148 | 0.145 ± 0.0106 | 0.04 | 5.78 ± 2.17 | 14.67 ± 0.37 | 16.10 ± 0.85 | 15.60 ± 0.49 | 15.87 ± 0.68 | 16.23 ± 0.92 | 17.07 ± 1.02 |
| CCCCNC(=O)N[C@H]1CSCc2cccc(c2)CSCC(C(=O)N[C@@H](CNC(=O)CN2CCN(C(=O)CN3CCN(CC(=O)O)CCN(CC(=O)O)CCN(CC(=O)O)CC3)CC2)C(=O)O)NC(=O)[C@H](CC2CCCCC2)NC(=O)[C@H](CCC(N)=O)NC(=O)[C@H]([C@@H](C)O)NC(=O)C2CCCN2C(=O)C2CN(C2)C1=O (some centres unmarked) [^177Lu-JHDC47, metal not drawn] | 0.445 ± 0.0318 | 3.905 ± 0.0035 | 2.1 ± 0.0141 | 0.67 ± 0.099 | 16.4 ± 1.38 | – | – | – | – | – | 15.20 ± 0.38 | – | 15.87 ± 0.33 | 15.33 ± 0.41 | 16.73 ± 0.40 | 17.43 ± 0.48 |
| CCCCNC(=O)N[C@H]1CSCc2cccc(c2)CSC[C@@H](C(=O)N[C@@H](CCC(=O)NCCCN2CCN(C(=O)CN3CCN(CC(=O)O)CCN(CC(=O)O)CCN(CC(=O)O)CC3)CC2)C(=O)O)NC(=O)[C@H](Cc2ccccc2)NC(=O)[C@H](CCC(N)=O)NC(=O)[C@H]([C@@H](C)O)NC(=O)[C@@H]2CCCN2C(=O)C2CN(C2)C1=O [^177Lu-JHDC48, metal not drawn] | 0.965 ± 0.0247 | 1.9 | 2.46 ± 0.102 | 2.44 ± 0.325 | 15.1 ± 0.65 | – | – | – | – | – | – | – | – | – | – | – |
| CCCCCC(=O)N[C@H]1CSCc2cccc(c2)CSC[C@@H](C(=O)N[C@@H](CCNC(=O)CCCCCCCNC(=O)CN2CCN(CC(=O)O)CCN(CC(=O)O)CCN(CC(=O)O)CC2)C(=O)O)NC(=O)[C@H](CC2CCCCC2)NC(=O)[C@H](CCC(N)=O)NC(=O)[C@H]([C@@H](C)O)NC(=O)[C@@H]2CCCN2C(=O)C2CN(C2)C1=O [^177Lu-JHDC52, metal not drawn] | 0.06 | 6.715 ± 0.0601 | 0.74 ± 0.0495 | 0.335 ± 0.0177 | 7.76 ± 0.629 | – | – | – | – | – | – | – | – | – | – | – |
| CCCCNC(=O)N[C@H]1CSCc2cccc(c2)CSCC(C(=O)N[C@@H](CCNC(=O)CCCCCCCNC(=O)CN2CCN(CC(=O)O)CCN(CC(=O)O)CCN(CC(=O)O)CC2)C(=O)O)NC(=O)[C@H](CC2CCCCC2)NC(=O)[C@H](CCC(N)=O)NC(=O)[C@H]([C@@H](C)O)NC(=O)C2CCCN2C(=O)C2CN(C2)C1=O (some centres unmarked) [^177Lu-JHDC53, metal not drawn] | 0.585 ± 0.046 | 3.21 ± 0.184 | 2.1 ± 0.0672 | 1.73 ± 0.0141 | 16.8 ± 2.84 | – | – | – | – | – | – | – | – | – | – | – |
| CCCCNC(=O)N[C@H]1CSCc2cccc(c2)CSCC(C(=O)N[C@@H](CCNC(=O)CCCNC(=O)CN2CCN(CC(=O)O)CCN(CC(=O)O)CCN(CC(=O)O)CC2)C(=O)O)NC(=O)[C@H](CC2CCCCC2)NC(=O)[C@H](CCC(N)=O)NC(=O)[C@H]([C@@H](C)O)NC(=O)[C@@H]2CCCN2C(=O)C2CN(C2)C1=O (some centres unmarked) [^177Lu-JHDC55, metal not drawn] | 0.46 ± 0.0141 | 3.14 ± 0.205 | 1.69 ± 0.0566 | 1.25 ± 0.0566 | 16 ± 0.817 | – | – | – | – | – | – | – | – | – | – | – |
